From patent US12594246B2, “Formulations for enteric delivery of therapeutic agents” (CuriOralRx, LLC, priority 2016, dated 2026)

Settings: 0.1 mL of 10 mg/mL insulin in 0.01N HCl added to 1 mL 2% EUDRAGIT L 100 in ethanol; no visible precipitation

insulin
Solubility of insulin in organic solvent at acidic pH: soluble even at 90% of organic solvent
